Tested on: SK-OV-3-luc ovarian cancer
Assay: Ovarian cancer survival in mice
Assay type: in vivo
Source text: Ovarian cancer study has been conducted at Wuxi AppTec under Dr. Yong Cang and the study is still ongoing as of Aug. 4, 2013. However in order to show the comparison mean days of the death of the mice in each group to compare with the positive drug group which has 76.8 days.
Bioluminescent images of RAAS-20120628-SK-OV-3-luc for all groups.
At day 63 after ovarian cancer has started an experiment of Kieu Hoang AFCC TM by oral application of four mice left from the entire group. That means that by day 63 ovarian cancer has already developed. In the beginning we forced the mice to drink without water, therefore the mice died in early stage.

B1: AFOD RAAS 108: from A1AT from fraction IV (protein, UniProt P01009 25-418, looked up)
Alpha-1-antitrypsin: EDPQGDAAQKTDTSHHDQDHPTFNKITPNLAEFAFSLYRQLAHQSNSTNIFFSPVSIATAFAMLSLGTKADTHDEILEGLNFNLTEIPEAQIHEGFQELLRTLNQPDSQLQLTTGNGLFLSEGLKLVDKFLEDVKKLYHSEAFTVNFGDTEEAKKQINDYVEKGTQGKIVDLVKELDRDTVFALVNYIFFKGKWERPFEVKDTEEEDFHVDQVTTVKVPMMKRLGMFNIQHCKKLSSWVLLMKYLGNATAIFFLPDEGKLQHLENELTHDIITKFLENEDRRSASLHLPKLSITGTYDLKSVLGQLGITKVFSNGADLSGVTEEAPLKLSKAVHKAVLTIDEKGTEAAGAMFLEAIPMSIPPEVKFNKPFVFLMIEQNTKSPLFMGKVVNPTQK
Mean Survival Time (ovarian cancer mice, group mean, study still ongoing): 165.2 days
mean days of the death (mean survival time) (vehicle 128.5 days, study ongoing): 165.2 days

From patent publication US20170266266A1, “Functions of 55 Newfound Proteins and Their Medicinal Application in the Treatment and Prevention of Disease” (priority 2012, published 2017)
